Legend:
CDK6 = CDK6 (Homo sapiens (Human), UniProt Q00534); assay: Phospho-Serine 795 Rb ELISA assay in MV4-11 cells; assay type: cell-based; settings: overnight treatment, phospho-Rb S795, read-out: CDK6 pRB S795 ELISA MV4-11 cells IC50
Procedure: JEKO-1 or MV4-11 cells were seeded at 15,000 or 20,000 cells per well, respectively, in 100 μL growth media and allowed to incubate at 37° C. with 5% CO2 overnight. The following day, compounds were serially diluted from a 10 mM top dose for an 11-point 3-fold dilution curve in DMSO. Compounds were intermediately diluted 1:200 into growth media prior to diluting 1:5 on cells for final concentration 10 μM to 0.1 nM in 0.1% DMSO on cells. JEKO-1 and MV4-11 cells were treated were treated overnight, at 37° C. with 5% CO2. Cells were lysed in 100 μL/well CST lysis buffer on ice and transferred to pre-coated and blocked anti-phospho-Ser795 Rb ELISA plates for overnight incubation at 4° C. Plates were washed to remove residual, unbound cellular proteins and total Rb detection antibody added for 90 minutes at 37° C. Following wash to remove unbound total Rb antibody, the HRP tagged antibody was allowed to bind for 30 minutes at 37° C. Following wash to remove unbound HRP antibody, Glo Substrate Reagent was added and incubated protected from light for 5 to 10 minutes. Plates were read in luminescence mode and IC50 values calculated.
CDK4 and CDK6 in vitro Ki (nM) data are provided using calorimetric assays. CDK4 and CDK6 cell-based IC50 (nM) data are provided for CDK4 and CDK6 using phospho-Rb S795 ELISA assays in JEKO-1 and MV4-11 cells.

By UniProt entry, the sequences of proteins in these tests, tags left out.
UniProt Q00534, whole entry: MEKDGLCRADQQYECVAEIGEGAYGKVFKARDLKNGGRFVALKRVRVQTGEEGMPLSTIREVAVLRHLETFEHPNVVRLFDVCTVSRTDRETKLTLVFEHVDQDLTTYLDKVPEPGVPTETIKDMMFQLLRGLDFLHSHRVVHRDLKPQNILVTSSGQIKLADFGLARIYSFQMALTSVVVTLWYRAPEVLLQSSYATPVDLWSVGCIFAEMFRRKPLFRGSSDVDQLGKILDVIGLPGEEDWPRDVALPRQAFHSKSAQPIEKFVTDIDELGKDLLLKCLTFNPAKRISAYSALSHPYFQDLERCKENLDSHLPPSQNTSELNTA

CDK6/Cyclin D3 = CDK6/Cyclin D3 (Homo sapiens (Human), UniProt Q00534); assay: CDK6/Cyclin D3 mobility shift assay; assay type: biochemical; settings: activated CDK6/Cyclin D3, 3.5 mM ATP, Morrison fit; read-out: CDK6_D3 Ki
Excerpt: The purpose of the CDK6/Cyclin D3 assay is to evaluate the inhibition (% inhibition, Kiapp and Ki values) in the presence of small molecule inhibitors by using a fluorescence based microfluidic mobility shift assay. CDK6/Cyclin D3 catalyzes the production of ADP from ATP that accompanies the phosphoryl transfer to the substrate peptide 5-FAM-Dyrktide (5-FAM-[…]) (SEQ ID NO:1). The mobility shift assay electrophoretically separates the fluorescently labeled peptides (substrate and phosphorylated product) following the kinase reaction. Both substrate and product are measured and the ratio of these values is used to generate % conversion of substrate to product by the LabChip EZ Reader. Typical reaction solutions contained 2% DMSO (±inhibitor), 2% glycerol, 10 mM MgCl2, 1 mM DTT, 3.5 mM ATP, 0.005% Tween 20 (TW-20), 3 μM 5-FAM-Dyrktide, 4 nM (active sites) activated CDK6/Cyclin D3 in 40 mM HEPES buffer at pH 7.5.
The reaction was stopped after 95 minutes by the addition of 50 μL of 30 mM EDTA. Ki determinations were made from a plot of the fractional velocity as a function of inhibitor concentration fit to the Morrison equation with the enzyme concentration as a variable.
For CDK4 and CDK6 mobility shift assays, see also Morrison, J. F. (1969) Kinetics of the reversible inhibition of enzyme-catalysed reactions by tight-binding inhibitors, Biochimica et biophysica acta 185, 269-286; and Murphy, D. J. (2004) Determination of accurate KI values for tight-binding enzyme inhibitors: an in silico study of experimental error and assay design, Analytical biochemistry 327, 61-67.

Structure (SMILES) | IC50 (CDK6) [nM] | Ki (CDK6/Cyclin D3) [nM]
CC(C)n1c([C@@H](C)O)nc2c(F)cc(-c3nc(N[C@@H]4CCN(S(C)(=O)=O)C[C@@H]4O)ncc3Cl)cc21 (single isomer, unassigned) [Example F11] | 2400 | 79.9
CC(O)c1nc2c(F)cc(-c3nc(N[C@@H]4CCN(S(=O)(=O)C(F)F)C[C@H]4O)ncc3Cl)cc2n1C(C)C (stereo partly drawn) [Example F09, (3R,4R)-4-({5-chloro-4-[4-fluoro-2-(1-hydroxyethyl)-1-(propan-2-yl)-1H-benzimidazol-6-yl]pyrimidin-2-yl}amino)-1-(difluoromethanesulfonyl)piperidin-3-ol] | – | 5.5
CC(O)c1nc2c(F)cc(-c3nc(N[C@@H]4CCN(S(=O)(=O)C(F)F)C[C@H]4O)ncc3Cl)cc2n1C(C)C (stereo partly drawn) [Example F10, (3R,4R)-4-({5-chloro-4-[4-flluoro-2-(1-hydroxyethyl)-1-(propan-2-yl)-1H-benzimidazol-6-yl]pyrimidin-2-yl}amino)-1-(difluoromethanesulfonyl)piperidin-3-ol] | 153 | –

The next lines start with the values.

IC50 (CDK6) [nM] | Ki (CDK6/Cyclin D3) [nM] | Structure (SMILES)
61.4 | 4.4 | CC(C)n1c([C@@H](C)O)nc2c(F)cc(-c3nc(N[C@@H]4CCN(S(C)(=O)=O)C[C@H]4O)ncc3Cl)cc21 [Example A93, (3R,4R)-4-[(5-chloro-4-{4-fluoro-2-[(1R)-1-hydroxyethyl]-1-(propan-2-yl)-1H-benzimidazol-6-yl}pyrimidin-2-yl)amino]-1-(methanesulfonyl)piperidin-3-ol]
– | 81.1 | CC(C)n1c([C@@H](C)O)nc2c(F)cc(-c3nc(N[C@H]4CCN(S(C)(=O)=O)C[C@@H]4O)ncc3Cl)cc21 [Example F13, (3S,4S)-4-[(5-chloro-4-{4-fluoro-2-[(1R)-1-hydroxyethyl]-1-(propan-2-yl)-1H-benzimidazol-6-yl}pyrimidin-2-yl)amino]-1-(methanesulfonyl)piperidin-3-ol]
